Measured affinities in a library of Ab-95 light chain variants

Values reported by Engelhart et al. 2022, doi:10.1038/s41597-022-01779-4 (FLAb copy).

The target is the same throughout: PDVDLGDISGINAS, from the HR2 region of SARS-CoV-2 spike.

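Variants in AAYL52 differ from the parent at up to three CDR positions; double and triple changes were sampled at random. In AlphaSeq, yeast of one mating type display the scFv and yeast of the other type display the target. The frequency of each diploid, read from paired DNA barcodes, reflects how well the two displayed proteins bind. The ratio of observed to expected reads was calibrated, replicate by replicate, on BCL2-family standards whose Kd was known from biolayer interferometry. Mating was done three times.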

Parent: Ab-95, a human scFv built as VH, a 15-residue (Gly4Ser)3 linker, VL. Only the CDRs of the light chain vary.
VH: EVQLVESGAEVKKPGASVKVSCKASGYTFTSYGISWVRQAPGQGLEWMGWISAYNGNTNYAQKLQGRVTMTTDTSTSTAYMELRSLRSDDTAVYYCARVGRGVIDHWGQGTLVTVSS
VL: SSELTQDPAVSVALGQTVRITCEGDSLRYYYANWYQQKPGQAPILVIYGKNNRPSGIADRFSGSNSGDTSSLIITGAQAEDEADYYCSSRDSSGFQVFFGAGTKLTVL

The parent's light chain CDRs are EGDSLRYYYAN, GKNNRPS, SSRDSSGFQVF; each variant's own CDRs replace them letter for letter. Each Kd is an estimate from the mating assay, the geometric mean of the replicates in which the pair was seen; lower is stronger. "not detected" means that the variant was in the library but no mating with the target was seen in any replicate; the authors take this as a sign of poor binding, and no number exists. Three control strains display no target. For library AAYL52, 28% of the pairings with them gave a signal, with a median of 8.2 µM and one signal in twenty below 800 nM, so weak values seen in few replicates may be background. For each scFv, signals with the empty controls are counted beside the result.

| CDR-L1 | CDR-L2 | CDR-L3 | Kd (apparent) | detected | empty controls |
|---|---|---|---|---|---|
| EADSLRYYLAN | GKNNRPS | SSRNSSGFQVF | 1.5 µM | 3/3 | 2/9 |
| EGDSLRYYYAN | GKNNRPS | SSRDCSYHQVF | 2.9 µM | 2/3 | 0/9 |
| EGDSLFKYYYN | GKNNRPS | SSRDSSGFQVF | 4.3 µM | 1/3 | 0/9 |
| EGDSLRYYYAN | GKNTRPH | SSRPSSGFQVF | 47 µM | 1/3 | 1/9 |
| EGGSLRYYYAN | GKNNRPS | SSRLMSGFQVF | 19 µM | 1/3 | 2/9 |
| EGDSLREYYAN | GKNNRPS | SSLDSMGFQVF | 56 µM | 1/3 | 2/9 |
| EGDSLRLEYAN | GKNNRPS | SSRDSSGFQVF | 76 nM | 3/3 | 3/9 |
| EGDSLRYHYEN | GKNNRPM | SSRDSSGFQVF | 110 nM | 3/3 | 5/9 |
| EGDSLITYYAN | GKNNRPS | TSRDSSGFQVF | 15 µM | 2/3 | 3/9 |
| EGDSLRCYYAN | GKNARPS | SSRDSMGFQVF | 52 µM | 2/3 | 5/9 |
| EGDKLRYYYAY | GKNNRPS | SSRDSSGFKVF | 420 nM | 3/3 | 3/9 |
| EGLSLRYYYAN | GKNNRPS | SSRDSSGKQVT | 390 nM | 3/3 | 5/9 |
| EGDSLREYYDN | GKNGRPS | SSRDSSGFQVF | 44 µM | 3/3 | 3/9 |
| EGDSFRYYYAN | GKNNFGS | SSRDSSGFQVF | 76 µM | 1/3 | 2/9 |
| EHDSLRYYYAN | NKKNRPS | SSRDSSGFQVF | 7.9 µM | 1/3 | 2/9 |
| ECDSLRYYYAN | WKNNWPS | SSRDSSGFQVF | 11 µM | 1/3 | 1/9 |
| EGDSLRYYYAG | GKNVRPS | SSRDVSGFQVF | 3.9 µM | 2/3 | 1/9 |
| EGDSLRYYYAI | GKNNRPS | SSRHSSGFQVF | 2.0 µM | 1/3 | 4/9 |
| EGASLTYYYAN | GKNNRPS | SSRDSSGFQVF | 240 nM | 3/3 | 3/9 |
| EGDSLRYYYAN | QKNNRPS | SSQDSSTFQVF | 15 µM | 2/3 | 3/9 |
| EGDSVRYYAAN | GKNNRPS | SSRWSSGFQVF | 17 µM | 1/3 | 0/9 |
| EGDSLRYYYAP | GKNNRQS | SSRDSSGFQVY | 26 µM | 3/3 | 5/9 |
| EGDKLRYYYAN | VKNNRPS | SSRDSSGFGVF | 34 µM | 1/3 | 0/9 |
| SGDSLRYYYAN | GKPNRPS | SSRDSYGFQVF | 1.8 µM | 1/3 | 0/9 |
| EGDVLRYYYKN | GKNNRPS | SSRDSSDFQVF | 5.1 µM | 3/3 | 6/9 |
| EGDSLRYYYAN | MKNNRCS | SSRDSSGAQVF | not detected | 0/3 | 1/9 |
| ESDSLRYVYAN | GKNNRPS | SSRDSHGFQVF | 4.1 µM | 2/3 | 5/9 |
| EGDSLRRYYAN | GKNNRPD | SSRDSSGFQYF | 14 µM | 1/3 | 0/9 |
| EGGSLRYYYAN | GKNNRPS | SSRDSPGFQVF | 410 nM | 3/3 | 4/9 |
| EGDSLRYYYAN | GKNYRPS | SSRDSSGFQYF | 550 nM | 3/3 | 4/9 |
| FGDSCRYYYAN | GKNNRPS | SYRDSSGFQVF | 12 µM | 1/3 | 0/9 |
| EGDSLRYYYAN | GKNNRRS | SSRDSDIFQVF | not detected | 0/3 | 0/9 |
| EGDSLRYYYAA | GKNNRPS | SSRDSSGFGIF | 260 µM | 1/3 | 1/9 |
| EGDSLRYYYAN | GKNHVPS | SSRDSSGFQVY | 2.1 µM | 3/3 | 3/9 |
| EGDSLRYYYAN | HKNERPS | SSPDSSGFQVF | not detected | 0/3 | 1/9 |
| EGDSLRYYYAN | CKNNRIS | SKRDSSGFQVF | not detected | 0/3 | 3/9 |
| EGDSLRWYYAN | GKNNRPQ | SSRDSSGFQVD | 1.8 µM | 3/3 | 3/9 |
| EGRSLRYYYAN | GKNNRPG | SSRDSSGFQVF | 580 nM | 3/3 | 2/9 |
| EGDSLRYYYAN | TKNNRPS | SSRDSSGNQVS | 62 µM | 1/3 | 1/9 |
| NGDSLRYYYAN | GKNNRPS | SSRDSEGFQVK | 65 nM | 3/3 | 1/9 |
| EGDSLRYYYAI | GKNHNPS | SSRDSSGFQVF | not detected | 0/3 | 0/9 |
| EQDSLRYYYFN | GKNNRPS | SSRDFSGFQVF | 15 µM | 2/3 | 0/9 |
| EGPSLRYYYAN | GKNNCPS | SSKDSSGFQVF | 4.4 µM | 3/3 | 3/9 |
| EGDSLRYRYAN | GKNNRPS | SSRDSSSFLVF | 2.8 µM | 1/3 | 1/9 |
| EGDSLRYYYAN | GCNNRPS | SGGDSSGFQVF | 4.1 µM | 3/3 | 2/9 |
| ELDSLRYYYAN | GKNNRDN | SSRDSSGFQVF | 21 µM | 1/3 | 2/9 |
| EGDGLRYYYQN | GKNNRLS | SSRDSSGFQVF | 6.9 µM | 1/3 | 3/9 |
| EGDSLRYYYAN | GKNDRPS | CSRQSSGFQVF | 360 nM | 3/3 | 3/9 |
| EGDSLSYYYAN | GKNNRKS | SSRLSSGFQVF | not detected | 0/3 | 0/9 |
| IGDSLRYYYAN | GKWVRPS | SSRDSSGFQVF | 5.6 µM | 2/3 | 6/9 |
| EGDSHRYYYAN | GKDLRPS | SSRDSSGFQVF | 680 nM | 3/3 | 1/9 |
| EGDSLRYYSAN | GKNNRPS | CSRDSSKFQVF | not detected | 0/3 | 1/9 |
| EGDSLRYYYAN | GKNNRPS | SSRDSSGYQVI | 15 µM | 1/3 | 1/9 |
| EGYSLRLYYAN | GKNNRPS | SERDSSGFQVF | 23 µM | 2/3 | 1/9 |
| EIDSLRYYYAE | GKNNRPS | SSRDSSWFQVF | 79 µM | 2/3 | 3/9 |
| EGISLRYYYAN | GKNNRCS | SSRDSSGFQVF | 1.8 µM | 3/3 | 1/9 |
| EGDSLWYYYAN | GKNNRPS | SSRDSQGFQKF | 21 µM | 3/3 | 3/9 |
| EGDSLRYWYEN | GKNNFPS | SSRDSSGFQVF | 30 µM | 2/3 | 1/9 |
| EGTSLRYYYAN | GKNRRPS | YSRDSSGFQVF | 3.9 µM | 3/3 | 5/9 |
| EGDSLRVYYAN | GKNDVPS | SSRDSSGFQVF | not detected | 0/3 | 2/9 |
| EGDHLRYYWAN | GKNNRPS | ISRDSSGFQVF | 15 µM | 2/3 | 2/9 |
| EGDSLNYYYAN | GKNSRPE | SSRDSSGFQVF | 78 nM | 3/3 | 5/9 |
| EGDSLRYYYAN | GKNNRPS | KSRDFSGFQVM | not detected | 0/3 | 1/9 |
| EGDSLRYYYAN | GKNNRPS | SPRQSSGIQVF | 320 nM | 3/3 | 1/9 |

Top 7 of the variants detected in all replicates, tightest first:

CDR-L1	CDR-L2	CDR-L3	Kd (apparent)	detected	empty controls
NGDSLRYYYAN	GKNNRPS	SSRDSEGFQVK	65 nM	3/3	1/9
EGDSLRLEYAN	GKNNRPS	SSRDSSGFQVF	76 nM	3/3	3/9
EGDSLNYYYAN	GKNSRPE	SSRDSSGFQVF	78 nM	3/3	5/9
EGDSLRYHYEN	GKNNRPM	SSRDSSGFQVF	110 nM	3/3	5/9
EGASLTYYYAN	GKNNRPS	SSRDSSGFQVF	240 nM	3/3	3/9
EGDSLRYYYAN	GKNNRPS	SPRQSSGIQVF	320 nM	3/3	1/9
EGDSLRYYYAN	GKNDRPS	CSRQSSGFQVF	360 nM	3/3	3/9